By UniProt entry, the sequences of proteins in these tests, tags left out.
UniProt P01112, whole entry: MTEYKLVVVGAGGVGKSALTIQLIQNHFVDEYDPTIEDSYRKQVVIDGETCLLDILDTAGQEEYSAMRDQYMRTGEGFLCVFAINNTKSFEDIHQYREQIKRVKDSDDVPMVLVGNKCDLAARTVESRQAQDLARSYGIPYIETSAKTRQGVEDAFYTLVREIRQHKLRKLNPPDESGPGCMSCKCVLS

According to EP4603105A1, “PHARMACEUTICAL COMPOSITION CONTAINING CYCLIC COMPOUND HAVING SELECTIVE KRAS INHIBITORY EFFECT AGAINST HRAS AND NRAS” (CHUGAI SEIYAKU KABUSHIKI KAISHA, priority 2022, dated 2024):

Molecular target: HRAS wild-type protein (Homo sapiens, UniProt P01112)
Assay: Binding to HRAS by surface plasmon resonance (SPR), KD and KD ratio to KRAS
[1] = ratio of KD with respect to HRAS wild-type protein to KD with respect to KRAS
[2] = ratio of KD for HRAS wild-type protein to KD for KRAS

CC[C@H](C)[C@@H]1NC(=O)[C@H](CC)N(C)C(=O)C[C@@H](C(=O)N(C)C)N(C)C(=O)[C@H](C2CCCC2)N(C)C(=O)C2(CCC2)NC(=O)[C@@H]2CCCCN2C(=O)[C@H](CCc2cc(F)c(C(F)(F)F)c(F)c2)NC(=O)CN(C)C(=O)[C@H](Cc2ccc(C(F)(F)F)cc2)N2CC/C=C\C[C@@H](C2=O)N(C)C(=O)CN(C)C1=O
HRAS /KRAS [1]: A (a compound having 10 or more and less than 20 is denoted as A)

CC[C@H](C)[C@@H]1NC(=O)[C@H](CC)N(C)C(=O)C[C@@H](C(=O)N(C)C)N(C)C(=O)[C@H](C2CCCC2)N(C)C(=O)C2(CCC2)NC(=O)[C@@H]2C[C@@H](F)CN2C(=O)[C@H](CCc2cc(F)c(C(F)(F)F)c(F)c2)NC(=O)CN(C)C(=O)[C@H](Cc2ccc(C(F)(F)F)cc2)N2CC/C=C\C[C@@H](C2=O)N(C)C(=O)CN(C)C1=O
HRAS /KRAS [1]: B (a compound having 3 or more and less than 10 is denoted as B)

CCO[C@@H]1C[C@H]2C(=O)NC3(CCC3)C(=O)N(C)[C@@H](C3CCCC3)C(=O)N(C)[C@H](C(=O)N3CCOCC3)CC(=O)N(C)[C@@H](CCOC)C(=O)N[C@@H]([C@@H](C)CC)C(=O)N(C)CC(=O)N(C)[C@H]3CCCCCN(C3=O)[C@@H](Cc3ccc(F)cc3)C(=O)N(C)CC(=O)N[C@@H](CCc3cc(F)c(C(F)(F)F)c(F)c3)C(=O)N2C1
HRAS /KRAS [1]: B (a compound having 3 or more and less than 10 is denoted as B)

CCC[C@H]1C(=O)N[C@@H]([C@@H](C)CC)C(=O)N(C)CC(=O)N(C)[C@H]2C/C=C\CCN(C2=O)[C@@H](Cc2ccc(C(F)(F)F)cc2)C(=O)N(C)CC(=O)N[C@@H](CCc2cc(F)c(C(F)(F)F)c(F)c2)C(=O)N2C[C@H](OCC)C[C@H]2C(=O)NC2(CCC2)C(=O)N(C)[C@@H](C2CCCC2)C(=O)N(C)[C@H](C(=O)N2CCCCC2)CC(=O)N1C
HRAS /KRAS [1]: A (a compound having 10 or more and less than 20 is denoted as A)

CC[C@H](C)[C@@H]1NC(=O)[C@H](CC)N(C)C(=O)C[C@@H](C(=O)N2CCOCC2)N(C)C(=O)[C@H](C2CCCC2)N(C)C(=O)C2(CCCC2)NC(=O)[C@@H]2CCCN2C(=O)[C@H](CCc2cc(F)c(C(F)(F)F)c(F)c2)NC(=O)CN(C)C(=O)[C@H](Cc2ccc(C(F)(F)F)cc2)N2C[C@H](C)CC[C@@H](C2=O)N(C)C(=O)CN(C)C1=O
HRAS /KRAS [1]: B (a compound having 3 or more and less than 10 is denoted as B)

CCC[C@H]1C(=O)N[C@@H]([C@@H](C)CC)C(=O)N(C)CC(=O)N(C)[C@H]2C/C=C\CCN(C2=O)[C@@H](CC2CCC(F)(F)CC2)C(=O)N(C)CC(=O)N[C@@H](CCc2ccc(C(F)(F)F)c(OC)c2)C(=O)N2C[C@@H](C)C[C@H]2C(=O)N(C)C2(CCC2)C(=O)N(C)[C@@H](C2CCCC2)C(=O)N(C)[C@H](C(=O)N(C)C)CC(=O)N1C
HRAS /KRAS [2]: A (a compound having 10 or more and less than 20 is denoted as A)

CCO[C@@H]1C[C@H]2C(=O)NC3(CCC3)C(=O)N(C)[C@@H](C(CC)CC)C(=O)N(C)[C@H](C(=O)N(C)C)CC(=O)N(C)[C@@H](CC(C)C)C(=O)N[C@@H]([C@@H](C)CC)C(=O)N(C)CC(=O)N(C)[C@H]3C/C=C\CCN(C3=O)[C@@H](Cc3ccc(C(F)(F)F)cc3)C(=O)N(C)CC(=O)N[C@@H](CCc3ccc(C(F)(F)F)c(OC)c3)C(=O)N2C1
HRAS /KRAS [1]: A (a compound having 10 or more and less than 20 is denoted as A)

CCO[C@@H]1C[C@H]2C(=O)NC3(CCC3)C(=O)N(C)[C@@H](C3CCCC3)C(=O)N(C)[C@H](C(=O)N(C)C)CC(=O)N(C)[C@@H](CC(C)C)C(=O)N[C@@H]([C@@H](C)CC)C(=O)N(C)CC(=O)N(C)[C@H]3C/C=C\CCN(C3=O)[C@@H](CC3CCC(F)(F)CC3)C(=O)N(C)CC(=O)N[C@@H](CCc3cc(F)c(C(F)(F)F)c(F)c3)C(=O)N2C1
HRAS /KRAS [1]: A (a compound having 10 or more and less than 20 is denoted as A)

CCO[C@@H]1C[C@H]2C(=O)NC3(CCC3)C(=O)N(C)[C@@H](C3CCCC3)C(=O)N(C)[C@H](C(=O)N(C)C)CC(=O)N(C)[C@@H](CC)C(=O)N[C@@H]([C@@H](C)CC)C(=O)N(C)CC(=O)N(C)[C@H]3C/C=C\CCN(C3=O)[C@@H](Cc3ccc(C(F)(F)F)cc3)C(=O)N(C)CC(=O)N[C@@H](CCc3cc(F)c(Cl)c(F)c3)C(=O)N2C1
HRAS /KRAS [1]: B (a compound having 3 or more and less than 10 is denoted as B)

CCO[C@@H]1C[C@H]2C(=O)NC(C)(C)C(=O)N(C)[C@@H](C3CCCC3)C(=O)N(C)[C@H](C(=O)N(C)C)CC(=O)N(C)[C@@H](CC)C(=O)N[C@@H]([C@@H](C)CC)C(=O)N(C)CC(=O)N(C)[C@H]3C/C=C\CCN(C3=O)[C@@H](Cc3ccc(C(F)(F)F)cc3)C(=O)N(C)CC(=O)N[C@@H](CCc3cc(F)c(C(F)(F)F)c(F)c3)C(=O)N2C1
HRAS /KRAS [1]: A (a compound having 10 or more and less than 20 is denoted as A)

CCO[C@@H]1C[C@H]2C(=O)NC3(CCC3)C(=O)N(C)[C@@H](C3CCCC3)C(=O)N(C)[C@H](C(=O)N(C)C)CC(=O)N(C)[C@@H](CC3CCCC3)C(=O)N[C@@H]([C@@H](C)CC)C(=O)N(C)CC(=O)N(C)[C@H]3C/C=C\CCN(C3=O)[C@@H](Cc3ccc(C(F)(F)F)cc3)C(=O)N(C)CC(=O)N[C@@H](CCc3cc(F)c(Cl)c(F)c3)C(=O)N2C1
HRAS /KRAS [1]: B (a compound having 3 or more and less than 10 is denoted as B)

CCCOC[C@H]1C(=O)N[C@@H]([C@@H](C)CC)C(=O)N2CCC[C@H]2C(=O)N(C)[C@H]2C/C=C\CCN(C2=O)[C@@H](CC2CCC(F)(F)CC2)C(=O)N(C)CC(=O)N[C@@H](CCc2ccc(C(F)(F)F)c(OC)c2)C(=O)N2C[C@H](OCC)C[C@H]2C(=O)N(C)C2(CCC2)C(=O)N(C)[C@@H](C2CCCC2)C(=O)N(C)[C@H](C(=O)N(C)C)CC(=O)N1C
HRAS /KRAS [2]: B (a compound having 3 or more and less than 10 is denoted as B)

CCO[C@@H]1C[C@H]2C(=O)NC3(CCC3)C(=O)N(C)[C@@H](C3CCCC3)C(=O)N(C)[C@H](C(=O)N(C)C)CC(=O)N(C)[C@@H](COC)C(=O)N[C@@H]([C@@H](C)CC)C(=O)N(C)CC(=O)N(C)[C@H]3CCCCCN(C3=O)[C@@H](Cc3ccc(F)cc3)C(=O)N(C)CC(=O)N[C@@H](CCc3cc(F)c(C(F)(F)F)c(F)c3)C(=O)N2C1
HRAS /KRAS [1]: B (a compound having 3 or more and less than 10 is denoted as B)

CCO[C@@H]1C[C@H]2C(=O)NC3(CCC3)C(=O)N(C)[C@@H](C3CCCC3)C(=O)N(C)[C@H](C(=O)N3CCOCC3)CC(=O)N(C)[C@@H](CC3CCC3)C(=O)N[C@@H]([C@@H](C)CC)C(=O)N(C)CC(=O)N(C)[C@H]3C/C=C\CCN(C3=O)[C@@H](Cc3ccc(C)cc3)C(=O)N(C)CC(=O)N[C@@H](CCc3cc(F)c(C(F)(F)F)c(F)c3)C(=O)N2C1
HRAS /KRAS [1]: A (a compound having 10 or more and less than 20 is denoted as A)

CCCC[C@H]1C(=O)N[C@@H]([C@@H](C)CC)C(=O)N(C)CC(=O)N(C)[C@H]2C/C=C\CCN(C2=O)[C@@H](Cc2ccc(C(F)(F)F)cc2)C(=O)N(C)CC(=O)N[C@@H](CCc2cc(F)c(C(F)(F)F)c(F)c2)C(=O)N2C[C@H](OCC)C[C@H]2C(=O)NC2(CCC2)C(=O)N(C)[C@@H](C2CCCC2)C(=O)N(C)[C@H](C(=O)N(C)C)CC(=O)N1C
HRAS /KRAS [1]: A (a compound having 10 or more and less than 20 is denoted as A)

CCOC1CC2C(=O)NC3(CCC3)C(=O)N(C)C(C3CCCC3)C(=O)N(C)C(C(=O)N3CCOCC3)CC(=O)N(C)C(CC3CCCCC3)C(=O)NC(C(C)CC)C(=O)N(C)CC(=O)N(C)C3CC=CCCN(C3=O)C(Cc3ccc(C(F)(F)F)cc3)C(=O)N(C)CC(=O)NC(CCc3cc(F)c(C(F)(F)F)c(F)c3)C(=O)N2C1 (stereo not shown)
HRAS /KRAS [1]: A (a compound having 10 or more and less than 20 is denoted as A)

CCO[C@@H]1C[C@H]2C(=O)NC3(CCCCC3)C(=O)N(C)[C@@H](C3CCCC3)C(=O)N(C)[C@H](C(=O)N(C)C)CC(=O)N(C)[C@@H](CC)C(=O)N[C@@H]([C@@H](C)CC)C(=O)N(C)CC(=O)N(C)[C@H]3C/C=C\CCN(C3=O)[C@@H](Cc3ccc(C(F)(F)F)cc3)C(=O)N(C)CC(=O)N[C@@H](CCc3cc(F)c(C(F)(F)F)c(F)c3)C(=O)N2C1
HRAS /KRAS [1]: A (a compound having 10 or more and less than 20 is denoted as A)

CCO[C@@H]1C[C@H]2C(=O)NC3(CC(C)(C)C3)C(=O)N(C)[C@@H](C3CCCC3)C(=O)N(C)[C@H](C(=O)N(CC)CC)CC(=O)N(C)[C@@H](COC)C(=O)N[C@@H]([C@@H](C)CC)C(=O)N(C)CC(=O)N(C)[C@H]3C/C=C\CCN(C3=O)[C@@H](Cc3ccc(C)cc3)C(=O)N(C)CC(=O)N[C@@H](CCc3ccc(C(F)(F)F)c(Cl)c3)C(=O)N2C1
HRAS /KRAS [2]: A (a compound having 10 or more and less than 20 is denoted as A)

CCO[C@@H]1C[C@H]2C(=O)NC3(CCC3)C(=O)N(C)[C@@H](C3CCCC3)C(=O)N(C)[C@H](C(=O)N3CCCCC3)CC(=O)N(C)[C@@H](C)C(=O)N[C@@H]([C@@H](C)CC)C(=O)N(C)CC(=O)N(C)[C@H]3C/C=C\CCN(C3=O)[C@@H](Cc3ccc(C(F)(F)F)cc3)C(=O)N(C)CC(=O)N[C@@H](CCc3cc(F)c(C(F)(F)F)c(F)c3)C(=O)N2C1
HRAS /KRAS [1]: A (a compound having 10 or more and less than 20 is denoted as A)

CCOCC1C(=O)NC(C(C)OCC)C(=O)N(C)CC(=O)N(C)C2CC=CCCN(C2=O)C(Cc2ccc(C)cc2)C(=O)N(C)CC(=O)NC(CCc2cc(F)c(C(F)(F)F)c(F)c2)C(=O)N2CC(C)CC2C(=O)NC2(CC(C)(C)C2)C(=O)N(C)C(C2CCCC2)C(=O)N(C)C(C(=O)N(C)CC)CC(=O)N1C (stereo not shown)
HRAS /KRAS [2]: A (a compound having 10 or more and less than 20 is denoted as A)

CCC[C@H]1C(=O)N[C@@H]([C@@H](C)CC)C(=O)N(C)CC(=O)N(C)[C@H]2C/C=C\CCN(C2=O)[C@@H](Cc2ccc(C(F)(F)F)cc2)C(=O)N(C)CC(=O)N[C@@H](CCc2ccc(C(F)(F)F)c(OC)c2)C(=O)N2C[C@@H](C)C[C@H]2C(=O)N(C)C2(CCC2)C(=O)N(C)[C@@H](C2CCCC2)C(=O)N(C)[C@H](C(=O)N(C)C)CC(=O)N1C
HRAS /KRAS [2]: B (a compound having 3 or more and less than 10 is denoted as B)

CCO[C@@H]1C[C@H]2C(=O)NC3(CCC3)C(=O)N(C)[C@@H](C3CCCC3)C(=O)N(C)[C@H](C(=O)N(C)C)CC(=O)N(C)[C@@H](CC3CC3)C(=O)N[C@@H]([C@@H](C)CC)C(=O)N(C)CC(=O)N(C)[C@H]3C/C=C\CCN(C3=O)[C@@H](Cc3ccc(C(F)(F)F)cc3)C(=O)N(C)CC(=O)N[C@@H](CCc3ccc4sccc4c3)C(=O)N2C1
HRAS /KRAS [1]: A (a compound having 10 or more and less than 20 is denoted as A)
